# Ab-14 light chain CDR variants: yeast mating affinities

Target peptide (SARS-CoV-2 spike, HR2 region): PDVDLGDISGINAS

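Phage display of a naive human antibody library on the peptide gave the parent. Library AAYL50 holds single substitutions and randomly drawn double and triple substitutions in the CDRs. AlphaSeq pools MATa yeast showing the antibodies with MATalpha yeast showing the peptide. Mating (16 h, 30 °C) was followed by selection of diploids and sequencing of their barcodes. A regression on co-assayed BCL2-family reference pairs converts the normalised counts of each replicate to an apparent Kd. There are three technical replicates.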

Parent scFv Ab-14: VH joined to VL by the linker GGGGSGGGGSGGGGS. Changes lie in the light chain CDRs alone.
VH: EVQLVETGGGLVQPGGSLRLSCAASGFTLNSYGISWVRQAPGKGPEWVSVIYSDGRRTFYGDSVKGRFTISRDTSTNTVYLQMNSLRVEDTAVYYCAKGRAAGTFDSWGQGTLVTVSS
VL: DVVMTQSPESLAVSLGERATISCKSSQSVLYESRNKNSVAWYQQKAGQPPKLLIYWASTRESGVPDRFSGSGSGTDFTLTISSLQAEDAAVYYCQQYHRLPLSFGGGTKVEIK

The parent's light chain CDRs are KSSQSVLYESRNKNSVA, WASTRES, QQYHRLPLS; each variant's own CDRs replace them letter for letter.
Scale: log10 of Kd in nM, estimated from mating counts; low values are strong binders.
A mean of the replicates is given; it leaves out those without a signal.
A pair that was not seen in that replicate is written "nd"; this usually means weak binding, but a binder can also be missed.
Nonspecific signal, from three strains lacking the peptide, appeared in 18% of pairings of library AAYL50, centred on 4.19 (5% of these signals below 2.99); values are not corrected for it. For each scFv, signals with the empty controls are counted beside the result.
For reference, the parent read 0.65 as the reference entry and 1.68 as a member of this library.

Variant KTSQSVLYESRNKNSVA, WASTKES, QQYHRLPLE showed 2.07, 1.83, 2.04 (mean 1.98; controls 3 of 9).
Variant KSSDSVLYESRNKNSVA, VASTRES, TQYHRLPLS showed nd, 4.19, nd (controls 2 of 9).
Variant KSSQSVLYASRNKNSVA, NASTRES, KQYHRLPLS showed nd, nd, nd (controls 1 of 9).
Variant KSSQSVLYESYNKNSVA, WACTREC, QQYHRLPLS showed 2.63, 2.96, 3.63 (mean 3.07; controls 4 of 9).
Variant KSSQSVLYESRNKESVA, WKSTRES, QQYHRLPLW showed 3.02, 3.66, nd (mean 3.34; controls 1 of 9).
Variant KSSQSVLYESRNTNDEA, WASTRES, QQYHRLPLS showed nd, 3.25, 4.41 (mean 3.83; controls 6 of 9).
Variant KSSQSVLYESRNKNSVA, WASTRES, QQYHRFPLW showed 1.30, 1.28, 1.51 (mean 1.36; controls 4 of 9).
Variant KSSQSVLYESMNKNSVA, WISTRES, QQYHRLFLS showed 4.93, 4.04, nd (mean 4.48; controls 4 of 9).
Variant KSSQSVLYESRNKNSVA, WASTRES, QQYHFLGLS showed nd, nd, nd (controls 1 of 9).
Variant KSSQSVTYEPRNKNSVA, WASTRES, QQYNRLPLS showed 0.86, 0.82, 0.97 (mean 0.88; controls 0 of 9).
Variant YSSQPVLYESRNKNSVA, WASTREE, QQYHRLPLS showed 2.51, 2.39, 2.63 (mean 2.51; controls 1 of 9).
Variant KSSQNVLHESRNKNSVT, WASTRES, QQYHRLPLS showed nd, nd, nd (controls 1 of 9).
Variant KNSQSVLYESRNKNGVA, WASTRVS, QQYHRLPLS showed 2.66, 1.95, 2.19 (mean 2.27; controls 0 of 9).
Variant KSSQSVLYESRNKNEVA, WANTRES, QQYHRLPMS showed nd, nd, nd (controls 2 of 9).
Variant KSSQSVLYESRNKDSKA, WNSTRES, QQYHRLPLS showed nd, nd, nd (controls 1 of 9).
Variant KSYQSVLYESRNKNSDA, WASTRES, QQYHRLPLN showed 5.00, nd, nd (controls 4 of 9).
Variant KSSQSHLYESRNKNSVA, WASSRES, QQYHRLPLS showed 4.78, nd, nd (controls 2 of 9).
Variant KSSQSVLYESRNKNSVA, WATTSES, QQPHRLPLS showed 4.23, nd, 4.60 (mean 4.42; controls 3 of 9).
Variant KSSQSVLYESANKNSVA, CASKRES, QQYHRLPLS showed 1.68, 1.74, 1.64 (mean 1.69; controls 0 of 9).
Variant KSSQSVLYESRNKNSVA, WASTRES, QNYYRLPRS showed 4.74, 5.54, nd (mean 5.14; controls 4 of 9).
Variant KNSQSVLYESRNKNSVA, WASTRES, QQLHGLPLS showed 2.91, 2.57, 2.71 (mean 2.73; controls 4 of 9).
Variant KSSQSVLYESRNMNSYA, WASTRES, QQEHRLPLS showed nd, nd, nd (controls 1 of 9).
Variant KSSQSVLYESRDKNSVA, WASARES, EQYHRLPLS showed nd, nd, nd (controls 4 of 9).
Variant KSSQSVLYESRNKNSVA, TASTRES, QQYMRSPLS showed nd, nd, nd (controls 3 of 9).
Variant KSSQSVLYESRQKKSVA, WAGTRES, QQYHRLPLS showed 2.75, 2.91, 3.14 (mean 2.93; controls 2 of 9).
Variant KFSQSVLYESRNKPSVA, WASTRES, QQYHRLSLS showed 5.58, nd, 4.89 (mean 5.23; controls 3 of 9).
Variant QSSQSVLYESRNKNSVA, WASTRES, QQYHRLPWS showed nd, nd, nd (controls 0 of 9).
Variant KSSQSVLYESRIKNSVA, WASTRES, QNYHRLPQS showed nd, nd, nd (controls 0 of 9).
Variant KSSQWVLYESRNKNSTA, WASTRES, QQYHRLPWS showed 5.20, 5.48, 4.78 (mean 5.16; controls 5 of 9).
Variant KSSQSDLYESRWKNSVA, WASTRES, QQYHRNPLS showed nd, nd, nd (controls 3 of 9).
Variant KSSQSVLYEMRNKNWVA, WASTRES, QQYHRLPGS showed 3.00, nd, nd (controls 0 of 9).
Variant KSSQSVCYESRNKNSVT, WASTRES, KQYHRLPLS showed 5.61, 3.57, 4.56 (mean 4.58; controls 5 of 9).
Variant KSSQSRLYESLNKNSVA, WASFRES, QQYHRLPLS showed 1.82, 1.66, 3.43 (mean 2.31; controls 0 of 9).
Variant KLSQSVLYEHRNKNSVA, WASTRYS, QQYHRLPLS showed 1.86, 1.44, 1.92 (mean 1.74; controls 1 of 9).

A selection of 4 entries from above:

For KTSQSVLYESRNKNSVA, WASTKES, QQYHRLPLE, the assay gave 2.07, 1.83, 2.04 (mean 1.98; controls 3 of 9).
For KSSQSVLYESRDKNSVA, WASARES, EQYHRLPLS, the assay gave nd, nd, nd (controls 4 of 9).
For KSSQSVLYESRNKNSVA, WASTRES, QQYHFLGLS, the assay gave nd, nd, nd (controls 1 of 9).
For QSSQSVLYESRNKNSVA, WASTRES, QQYHRLPWS, the assay gave nd, nd, nd (controls 0 of 9).

From the AlphaSeq antibody data of Engelhart et al. 2022 (doi:10.1038/s41597-022-01779-4), copy in the FLAb collection.